From patent US20230158025A1 (UNIVERSITY OF UTAH RESEARCH FOUNDATION, priority 2020, published 2023) come the findings set out here.

By UniProt entry, the sequences of proteins in these tests, tags left out.
UniProt P51570, whole entry: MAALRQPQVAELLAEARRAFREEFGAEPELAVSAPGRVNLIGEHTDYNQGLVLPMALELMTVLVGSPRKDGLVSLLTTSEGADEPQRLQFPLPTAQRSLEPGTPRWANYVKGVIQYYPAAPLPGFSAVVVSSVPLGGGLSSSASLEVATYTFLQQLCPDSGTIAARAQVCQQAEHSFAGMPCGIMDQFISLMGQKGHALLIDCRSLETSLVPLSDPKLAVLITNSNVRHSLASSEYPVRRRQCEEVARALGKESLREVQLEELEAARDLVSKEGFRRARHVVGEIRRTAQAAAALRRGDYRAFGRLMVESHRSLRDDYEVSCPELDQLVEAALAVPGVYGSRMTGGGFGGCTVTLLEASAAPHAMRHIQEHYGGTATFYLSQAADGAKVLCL
UniProt Q9R0N0, whole entry: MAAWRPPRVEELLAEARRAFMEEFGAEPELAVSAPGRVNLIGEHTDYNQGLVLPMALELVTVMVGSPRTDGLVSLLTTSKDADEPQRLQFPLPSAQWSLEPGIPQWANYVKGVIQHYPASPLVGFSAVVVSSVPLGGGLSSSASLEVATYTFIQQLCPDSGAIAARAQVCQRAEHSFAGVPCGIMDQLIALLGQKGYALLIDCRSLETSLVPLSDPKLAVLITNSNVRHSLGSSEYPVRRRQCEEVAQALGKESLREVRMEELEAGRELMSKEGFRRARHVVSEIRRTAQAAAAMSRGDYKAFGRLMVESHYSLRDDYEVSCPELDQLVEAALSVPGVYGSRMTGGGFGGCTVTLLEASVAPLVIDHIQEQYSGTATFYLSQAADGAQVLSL

Like-named read-outs stand apart in the source and are kept apart here.

The target of one series is recombinant human GALK1 (Homo sapiens, UniProt P51570). As to the kind of experiment: hGALK1 biochemical activity assay (Kinase-Glo Plus, ATP depletion). (Kinase-Glo reads ATP consumption through a luciferase reaction.)
The target of another series is recombinant mouse GALK1 (Mus musculus, UniProt Q9R0N0). As to the kind of experiment: mGALK1 biochemical activity assay (Kinase-Glo Plus, ATP depletion).
The nature of series [1]: rat microsomal stability (RLM). The class given is in vitro ADME. The settings on record: microsomal stability half-life.
Another series is described as follows: PAMPA permeability. It counts as in vitro ADME. (In general: PAMPA measures passive passage across an artificial lipid membrane.)
Series [2] can be described thus: aqueous kinetic solubility. It counts as physicochemical.

Take `CC1=C(C(=O)Nc2ccc3nc(C)sc3c2)C(c2ccccc2Cl)N=C(Nc2nc3ccccc3o2)N1` (stereo not shown): the IC50 on recombinant human GALK1 (read-out: hGALK IC50, Tables 2-15, 35 μM ATP, 100 μM galactose, 1 h, bracketed figure after some values (e.g. −1.2) is undefined and not reported) was 5.44 µM; on recombinant human GALK1 (read-out: hGALK, recombinant human GALK1, Kinase-Glo Plus ATP depletion) it was 5.44 µM; at recombinant mouse GALK1 (read-out: mGALK IC50, Tables 2-15, 35 μM ATP, 100 μM galactose, 1 h, bracketed figure after some values is undefined and not reported), 13.7 µM; on recombinant mouse GALK1 (read-out: mGALK, recombinant mouse GALK1, Kinase-Glo Plus ATP depletion), 13.7 µM. In addition, in series [1], the “Metab. Stabil. (m)” value is above 30 m. The “Perm. (1 × 10^−6 cm/sec)” value in “PAMPA permeability” is <4.2 1 × 10^−6 cm/sec. The “Sol.” value in series [2] was below 1 µg/mL.
